# Values of other authors in US11951146B2, “Stimulation of NK cell activity by using a combination of broccoli, Nigella Sativa, Green Tea, and pterostilbene alone and together with metformin” (Therapeutic Solutions International, Inc., priority 2020, dated 2024).
# Tests used:
# [1] = tested on: lipopolysaccharide-activated macrophages; settings: EGCG 5 and 10 microM for 6-24 hr, vs without EGCG
# LPS-induced ARDS = settings: EGCG 10 mg/kg ip 1 h before LPS 10 mg/kg ip
# experimental colitis = settings: 50 and 100 mg/kg/day EGCG vs MD group
substance,measurement,setting,value
epigallocatechin-3-gallate [EGCG],iNOS activity in soluble extracts,[1],significantly lower
same,"LPS-induced ARDS (blood gases, histological lesions, wet-to-dry weight ratios, MPO activity)",LPS-induced ARDS,attenuated
same,disease activity index (DAI) and spleen index (SI),experimental colitis,decreased
